In ChEMBL document CHEMBL4265973, “Broad-spectrum antibacterial amphiphilic aminoglycosides: A new focus on the structure of the lipophilic groups extends the series of active dialkyl neamines” (Eur J Med Chem, 2018):

Columns and labels:
Staphylococcus aureus = conditions: SA-1
Escherichia coli = conditions: ATCC 25922

Sequence: GENTAMICIN
- MIC (Staphylococcus aureus): 0.5 µg/mL
- MIC (Escherichia coli): 0.5 µg/mL
